In article PMC3565472 (Journal of molecular modeling, 2012):

Target: T1, recombinant human HDAC8 (Homo sapiens, UniProt Q9BY41)
T1 sequence (Q9BY41 1-377): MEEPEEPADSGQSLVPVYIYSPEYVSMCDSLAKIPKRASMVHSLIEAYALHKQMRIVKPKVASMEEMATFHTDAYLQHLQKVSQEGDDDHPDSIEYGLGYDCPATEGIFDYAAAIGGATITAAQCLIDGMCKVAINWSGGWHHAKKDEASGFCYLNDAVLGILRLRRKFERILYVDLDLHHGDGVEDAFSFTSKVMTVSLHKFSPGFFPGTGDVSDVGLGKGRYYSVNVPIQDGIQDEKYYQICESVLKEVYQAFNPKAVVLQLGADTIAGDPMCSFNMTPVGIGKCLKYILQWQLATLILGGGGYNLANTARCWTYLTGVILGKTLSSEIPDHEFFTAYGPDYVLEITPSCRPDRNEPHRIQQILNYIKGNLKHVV
Experiment: HDAC8 inhibition, fluorescent acetylated substrate Fluor de Lys
Type: biochemical
Details: HDAC8 inhibitors used in this study

In the case of `O=C(CCCCCCC(=O)Nc1ccccc1)NO` [1a, suberoyl anilide hydroxamic acid], the Ki is reported as 0.395 µM.
